Data from paper PMC7486240 (Cell host & microbe, 2020).

Molecular target: HsmR (Clostridioides difficile, UniProt A0A9R0BIW1)
Assay: biochemical

C=CC1=C(C)C2=Cc3c(C=C)c(C)c4[n]3[Fe]([Cl])[n]3c(c(C)c(CCC(=O)O)c3=CC3=NC(=C4)C(C)=C3CCC(=O)O)=CC1=N2 [heme]
Kd: 6.6 ± 1.1 µM
